Yeast mating assay 1: variants of the scFv Ab-14

Binding partner: SARS-CoV-2 spike HR2 peptide, sequence PDVDLGDISGINAS.

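Phage display of a naive human antibody library on the peptide gave the parent. AAYL49 was designed without a model: most single CDR substitutions and a random sample of double and triple ones. AlphaSeq pools MATa yeast showing the antibodies with MATalpha yeast showing the peptide. Binding brings cells together so that they mate, and sequencing counts the barcode pairs among the diploids. Read counts were normalised to the haploid input and turned into Kd by a linear fit to BCL2-family pairs of known affinity, for each replicate. Mating was done three times.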

Ab-14 is the parent antibody, in scFv form: VH, then a 15-residue (Gly4Ser)3 linker, then VL. The light chain is unchanged in all variants.
VH: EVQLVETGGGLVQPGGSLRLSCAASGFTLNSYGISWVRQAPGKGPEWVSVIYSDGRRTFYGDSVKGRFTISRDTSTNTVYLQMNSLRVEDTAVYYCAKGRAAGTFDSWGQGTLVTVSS
VL: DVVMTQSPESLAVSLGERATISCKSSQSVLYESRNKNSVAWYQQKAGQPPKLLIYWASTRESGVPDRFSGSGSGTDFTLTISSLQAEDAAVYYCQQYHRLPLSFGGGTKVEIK

Substitutions are numbered in sequence along the VH above, starting at 1 (not Kabat).
Values are log10 of the apparent Kd in nM; lower means stronger binding.
Where no diploid with the target was found in that replicate, the entry reads "nd": below detection, most likely a poor binder, though not proof of it.
As a blank, each scFv also met three strains without target: over library AAYL49, 15% of these pairings were detected, typically at 4.06 and seldom below 2.83. The control count says in how many pairings with the empty strains this scFv gave a signal, with their mean in brackets.

| changes | log10 Kd, replicates | signal with controls |
|---|---|---|
| G33Y V64Y A101D | 4.32 3.93 nd | 1/9 (4.71) |
| Y32R V50P R57I | 6.13 nd nd | 3/9 (4.30) |
| G55E D62F G99R | nd nd 5.34 | 2/9 (4.02) |
| F27L I51S S107C | 5.98 4.04 4.37 | 6/9 (4.93) |
| R56P Y60P D62N | nd nd nd | 1/9 (5.06) |
| R57E S63I T104F | nd nd nd | 1/9 (2.51) |
| S35W Y52T A102V | nd 5.24 nd | 4/9 (4.12) |
| S31C F59V D106N | nd nd nd | 0/9 |
| D62W S63Y | nd nd nd | 0/9 |
| R57Y | nd nd nd | 2/9 (2.94) |
| G26W I34L F59S | nd nd nd | 0/9 |
| S35K S53A T58V | nd nd nd | 0/9 |
| N30Y I34H | nd 4.45 nd | 0/9 |
| S31P Y32W I34H | 3.93 nd nd | 0/9 |
| I34H V50G | nd 4.50 4.05 | 3/9 (3.62) |
| K65V S107K | 2.07 1.85 2.19 | 0/9 |
| S53A R56V R100F | 0.05 0.34 0.16 | 2/9 (4.33) |
| L29R N30H F59Y | nd 4.06 nd | 2/9 (4.51) |
| Y60Q T104M | nd nd nd | 1/9 (3.88) |
| L29G S63A G103N | nd nd nd | 0/9 |
| I51Y G55S Y60H | nd 3.42 nd | 0/9 |
| N30G Y32G G55F | nd nd 4.71 | 3/9 (4.74) |
| N30H R57D S63N | nd 2.90 nd | 0/9 |
| F59N S63D A102W | 1.26 1.84 1.83 | 2/9 (3.50) |
| S31Q S53F K65V | nd 1.65 1.04 | 1/9 (4.42) |
| Y32I R100I D106N | nd nd nd | 0/9 |
| G26P S31M G61H | 1.25 1.60 1.77 | 0/9 |
| T28S S35D T58H | nd 5.71 3.56 | 5/9 (4.13) |
| G33V R56P | nd nd nd | 2/9 (3.26) |
| S53V T58Q G99S | nd nd nd | 1/9 (4.52) |
| N30Q R57N D106M | nd nd nd | 2/9 (3.83) |

The first 2 variants above that were never detected:

| changes | log10 Kd, replicates | signal with controls |
|---|---|---|
| R56P Y60P D62N | nd nd nd | 1/9 (5.06) |
| R57E S63I T104F | nd nd nd | 1/9 (2.51) |

Reference: Engelhart et al. 2022, doi:10.1038/s41597-022-01779-4. File: FLAb, binding data.